Test results as given in article PMC2009863, “Pharmacokinetic considerations in testing hypoxic cell radiosensitizers in mouse tumours” (British Journal of Cancer, 1979).

Assays:
[1] = Plasma and tumour levels of total 2-nitroimidazoles, UV spectrophotometric assay at 318 nm, EMT6 tumour-bearing mice, normal or bilateral kidney ligation; details: for Tumour/Plasma: individual mice
Text: Several groups are now pursuing such a goal (Adams, 1977; Brown et al., 1978; Wardman, 1977). […] Specifically the two ques- tions were: (a) How much does the plasma half-life affect the peak plasma level? (b) How much does the plasma half-life affect the tumour/plasma ratio of drug concentrations? MATERIALS AND METHODS A description of the procedures for implanta- tion of tumours, and irradiation and assay of the viability of the tumour cells has been published previously (Brown, 1975). Brieflv, the EMT6/St/lu tumour was transplanted into 3-month-old, syngeneic BALB/c female mice, weighing 20-25 g, and irradiated at a diameter of 6-7 mm. Immediately after irradiation the tumours were removed and minced. The only modification was that the single-cell suspensions were prepared by a 30 min disaggregation using an enzyme "'cock- tail" of 0-05% pronase, 0.02% DNAase and 21 0 02% collagenase (Brown et al., in prepara- tion). Cell viability was assayed by plating appropriate dilutions of the tumour cells into Waymouth's medium containing 15% foetal calf serum in polystyrene Petri dishes, and counting colonies 13 days later. […] Bilateral kidney ligation was performed on anaesthetized mice by exteriorizing the kidneys through a 1 cm incision in the skin and abdominal wall and tying a ligature around the renal artery and vein at the renal pelvis. The abdominal incision, which was adjoining and parallel to the line of attach- ment of the abdominal wall with the dorsal muscles, was then closed tightly with 4 or 5 stitches, and the skin incision closed with metal clips. The sham operation was identical in all respects except for ligation of the renal artery and vein. […] Plasma (or whole blood) and tumour levels of 2-nitroimidazoles were determined in different ways in the two laboratories rep- resented.

mice = assay: Acute toxicity LD50/2d of MIS and Ro-05-9963; details: normal mice
Text: (§1) Several groups are now pursuing such a goal (Adams, 1977; Brown et al., 1978; Wardman, 1977). […] Specifically the two ques- tions were: (a) How much does the plasma half-life affect the peak plasma level? (b) How much does the plasma half-life affect the tumour/plasma ratio of drug concentrations? MATERIALS AND METHODS A description of the procedures for implanta- tion of tumours, and irradiation and assay of the viability of the tumour cells has been published previously (Brown, 1975). Brieflv, the EMT6/St/lu tumour was transplanted into 3-month-old, syngeneic BALB/c female mice, weighing 20-25 g, and irradiated at a diameter of 6-7 mm. Immediately after irradiation the tumours were removed and minced. The only modification was that the single-cell suspensions were prepared by a 30 min disaggregation using an enzyme "'cock- tail" of 0-05% pronase, 0.02% DNAase and 21 0 02% collagenase (Brown et al., in prepara- tion). Cell viability was assayed by plating appropriate dilutions of the tumour cells into Waymouth's medium containing 15% foetal calf serum in polystyrene Petri dishes, and counting colonies 13 days later. […] Plasma (or whole blood) and tumour levels of 2-nitroimidazoles were determined in different ways in the two laboratories rep- resented.

EMT6/St/lu tumour = assay: Radiosensitization of hypoxic tumour cells in vivo, cell survival after 1750 rad; design: species or system mouse; details: 2.5 mmol/kg, kidney ligation No
Text: as §1

[2] = 38 min after injection, normal mice, equimolar doses
[3] = Table II, 5 mmol/kg, BKL No, 38 min after injection
[4] = Table II, 5 mmol/kg, BKL Yes, 38 min after injection
[5] = Table II, 5 mmol/kg, BKL Yes, 6 h after injection

O=[N+]([O-])c1nccn1CC(O)CO (centres unmarked) [Ro-05-9963, 1-(2-nitroimidazol-1-yl)-2,3-pro-pandiol]
plasma level relative to MIS [1, 2]: less than 50%
tumour level relative to MIS [1, 2]: less than 50%
tumour/plasma ratio ([1]; EMT6 tumour, both normal and kidney-ligated mice): 50-70% and 60-70%
Tumour/Plasma ([1]; Table I, 5 mmol/kg i.p., 30 min after inj.): 0-46
Tumour/Plasma ([1]; Table I, 5 mmol/kg i.p., 37.5 min after inj.): 0-66 and 0-72
Tumour/Plasma ([1]; Table I, 5 mmol/kg i.p., 45 min after inj.): 0-51 and 0-66 and 0-62
Tumour/Plasma, Mean [1, 3]: 0-71
Tumour/Plasma, Mean [1, 4]: 0-61
Tumour/Plasma, Mean [1, 5]: 0-60
Tumour/Plasma [1, 3]: 0-57 and 0-49 and 1-22 and 0-60 and 0-67 and 0-71
Tumour/Plasma [1, 4]: 0-85 and 0-66 and 0-80 and 0-47 and 0-55
Tumour/Plasma [1, 5]: 0-36 and 0-90 and 0-50 and 0-62
peak tumour levels relative to equimolar injected doses of MIS ([1]; normal mice, EMT6 tumour): ≤ 50%
peak plasma concentration relative to equimolar injected dose of MIS ([1]; normal mice, Fig. 1): ~50%
acute LD50 relative to that of MIS (mice): twice
LD50/2d (and 95% confidence intervals) (mice; Stanford, same experiment): 3104 (2212-4355) mg/kg
Survival ratio (drug-injected / saline-injected) (EMT6/St/lu tumour): 0-102

Several values for one entry are separate records, joined by “and”; a condition that tells them apart may be missing. Identical values can stand only once.
